{"sequences": {"note": "Chains of the proteins cited; added tags and fusions are not shown. Lines headed by an entry give the natural chain unless they say otherwise; changes in a name come on top.", "UniProt P49841": "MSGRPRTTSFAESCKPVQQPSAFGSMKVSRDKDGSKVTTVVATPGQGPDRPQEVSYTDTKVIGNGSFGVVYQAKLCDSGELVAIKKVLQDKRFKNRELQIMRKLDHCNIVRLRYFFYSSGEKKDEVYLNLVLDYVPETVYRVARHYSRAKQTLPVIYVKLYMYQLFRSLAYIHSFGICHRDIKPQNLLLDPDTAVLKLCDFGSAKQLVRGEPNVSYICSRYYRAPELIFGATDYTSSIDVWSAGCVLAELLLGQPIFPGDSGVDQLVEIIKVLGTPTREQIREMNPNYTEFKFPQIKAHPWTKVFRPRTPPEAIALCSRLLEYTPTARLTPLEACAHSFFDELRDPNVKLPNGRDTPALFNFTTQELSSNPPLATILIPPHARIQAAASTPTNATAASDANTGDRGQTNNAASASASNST"}, "source": "ChEMBL document CHEMBL2034949", "about": "“Small Molecule Inhibitors of Regulator of G Protein Signalling (RGS) Proteins” (ACS Med Chem Lett, 2012)", "key": {"[1]": {"assay": "Selectivity ratio of IC50 for RGS8 to IC50 RGS4"}, "[2]": {"target": "Glycogen synthase kinase-3 beta (Homo sapiens, UniProt P49841)", "assay": "Inhibition of GSK3beta"}}, "data": [{"molecule": "CCCCn1c(=O)sn(CC)c1=O", "values": [{"measurement": "Ratio IC50", "setting": "[1]", "result": 5810}, {"measurement": "IC50", "setting": "[2]", "result": 70, "unit": "µM"}]}]}
